Test results as given in patent publication US11213590B2, “SSTR-targeted conjugates and particles and formulations thereof” (priority 2016, dated 2022).

By UniProt entry, the sequences of proteins in these tests, tags left out. Where a name states a change or a piece, a line headed by the entry shows the natural chain unless it says otherwise.
UniProt Q12809: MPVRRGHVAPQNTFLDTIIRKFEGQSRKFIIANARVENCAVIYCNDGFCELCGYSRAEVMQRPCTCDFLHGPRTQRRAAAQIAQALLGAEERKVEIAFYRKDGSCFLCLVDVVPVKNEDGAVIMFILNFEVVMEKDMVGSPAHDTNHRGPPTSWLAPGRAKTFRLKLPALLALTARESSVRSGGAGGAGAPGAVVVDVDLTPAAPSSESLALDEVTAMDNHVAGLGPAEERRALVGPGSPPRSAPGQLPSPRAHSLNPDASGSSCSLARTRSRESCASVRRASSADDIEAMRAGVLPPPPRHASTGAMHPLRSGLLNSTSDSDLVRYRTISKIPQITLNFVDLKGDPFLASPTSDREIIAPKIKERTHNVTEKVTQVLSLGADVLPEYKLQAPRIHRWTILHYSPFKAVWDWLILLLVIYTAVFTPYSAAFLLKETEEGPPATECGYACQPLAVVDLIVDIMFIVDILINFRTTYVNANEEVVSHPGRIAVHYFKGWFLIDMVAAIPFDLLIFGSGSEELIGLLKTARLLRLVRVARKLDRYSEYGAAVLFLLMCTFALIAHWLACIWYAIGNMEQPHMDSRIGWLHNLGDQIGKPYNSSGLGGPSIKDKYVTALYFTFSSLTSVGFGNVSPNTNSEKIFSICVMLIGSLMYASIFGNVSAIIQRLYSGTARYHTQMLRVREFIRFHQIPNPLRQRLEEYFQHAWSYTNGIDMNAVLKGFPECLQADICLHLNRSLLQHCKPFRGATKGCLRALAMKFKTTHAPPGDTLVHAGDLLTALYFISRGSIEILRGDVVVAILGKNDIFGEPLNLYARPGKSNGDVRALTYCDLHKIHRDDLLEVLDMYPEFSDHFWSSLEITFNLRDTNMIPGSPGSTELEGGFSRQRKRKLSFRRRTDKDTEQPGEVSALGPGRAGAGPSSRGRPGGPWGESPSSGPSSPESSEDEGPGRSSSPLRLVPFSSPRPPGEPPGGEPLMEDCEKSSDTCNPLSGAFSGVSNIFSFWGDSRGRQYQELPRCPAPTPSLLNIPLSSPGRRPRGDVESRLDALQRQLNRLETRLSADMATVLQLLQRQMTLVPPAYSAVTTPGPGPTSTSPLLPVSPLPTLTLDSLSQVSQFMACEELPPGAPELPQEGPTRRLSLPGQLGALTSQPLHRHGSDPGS

Molecular target: human Ether-á-go-go-Related Gene (hERG) ion channel (Homo sapiens, UniProt Q12809)
Test: hERG ion channel inhibition, IonWorks Quattro patch clamp
Assay type: cell-based
Settings: up to 10 μM
Method: The purpose of this study was to evaluate the potential of Conjugate 57 to prolong the QT interval via modulation of the ion channel, human Ether-á-go-go Related Gene (hERG). The potential inhibition of the ion channel activity by Conjugate 57 was tested using an IonWorks Quattro electrophysiological platform, which is an automated high-throughput patch clamp system. Conjugate 57 was tested at eight different concentrations, starting at a high concentration of 10 μM and a low concentration of 0.005 μM with a minimum of five replicates for each concentration. hERG currents were evoked by a three pulse protocol where voltage was first stepped to +40 mV for two seconds from a holding potential of −80 mV to inactivate hERG channels. The voltage is then stepped back to −50 mV for two seconds to evoke a tail current prior to returning to the holding potential for 1 second. The voltage protocol was applied (Pre), compounds added, incubated for 600 seconds, and the voltage protocol was applied a final time (Post) on the IonWorks Quattro. Dimethyl sulfoxide (DMSO) was used as a negative control and Cisapride was used as a positive control.

In the case of `COc1cc(N)c(Cl)cc1C(=O)NC1CCN(CCCOc2ccc(F)cc2)CC1OC` (stereo not shown) [Cisapride, reference compound], the “hERG ion channel inhibition (in words)” value is reported as “inhibited evoked currents in a dose dependent fashion”.
